# Reference: article PMC10931833, “Simultaneous Purification of Human Interferon Alpha-2b and Serum Albumin Using Bioprivileged Fluorinated Ionic Liquid-Based Aqueous Biphasic Systems” (International Journal of Molecular Sciences, 2024)
# Amino acid sequences for entries named in this document (tags omitted). Residues count along the entry.
# UniProt P02769, 25-607: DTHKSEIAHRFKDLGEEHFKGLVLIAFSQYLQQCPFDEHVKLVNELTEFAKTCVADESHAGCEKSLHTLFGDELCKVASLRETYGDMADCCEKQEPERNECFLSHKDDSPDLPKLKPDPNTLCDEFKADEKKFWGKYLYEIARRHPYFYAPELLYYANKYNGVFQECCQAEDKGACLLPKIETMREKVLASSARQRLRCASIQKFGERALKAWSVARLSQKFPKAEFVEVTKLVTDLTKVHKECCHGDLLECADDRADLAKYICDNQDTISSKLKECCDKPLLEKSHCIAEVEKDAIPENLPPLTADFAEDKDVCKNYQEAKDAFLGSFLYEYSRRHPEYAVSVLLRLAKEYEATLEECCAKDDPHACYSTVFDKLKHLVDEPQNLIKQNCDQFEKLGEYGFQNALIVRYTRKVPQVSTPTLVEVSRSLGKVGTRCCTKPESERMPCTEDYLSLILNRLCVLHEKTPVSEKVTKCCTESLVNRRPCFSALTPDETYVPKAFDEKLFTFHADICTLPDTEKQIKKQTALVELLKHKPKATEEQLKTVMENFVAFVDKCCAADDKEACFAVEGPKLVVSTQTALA
# Several values for one entry are separate records, joined by “and”; a condition that tells them apart may be missing. Equal entries are not always repeated.
# What was measured:
# BSA [1] = target: T1, BSA (Bos taurus, UniProt P02769); assay: CD thermal unfolding (Tm) of BSA; assay type: physicochemical, bovine; design: purchased Millipore Sigma-Aldrich; conditions: 1.2-1.6 mg/mL BSA in [N1112(OH)][H2PO4]-rich phase of BP#8
# From the text: The thermal stability assessed by far-UV CD is solely determined through the thermal decay of the alpha-helical structure.
# [2] = design: method as in ref 44 (IFN-α2b), 91 (BSA), 96 (Lys); conditions: ref 44 (IFN-α2b), 91 (BSA), 96 (Lys); cited from earlier work
# BSA [3] = target: T1, BSA; assay: DSC of BSA in or recovered from ABS phases
# BSA [4] = target: T1, BSA; assay: DSC thermal unfolding of BSA in water and aqueous solutions of ABS phase-forming components; assay type: physicochemical, bovine; design: purchased Millipore Sigma-Aldrich; conditions: 1.0 mg/mL BSA in water
# Experimental: Differential scanning calorimetry (DSC) measurements were performed with Nano DSC equipment, as detailed in Section 3, and used to determine the melting temperature (T m ) and enthalpy ( Δ H) of protein unfolding. DSC analyzes changes in the structure and stability of proteins as thermal transitions at the nanoscale. Using DSC to measure heat capacity as a function of the temperature of a well-studied protein such as BSA provides keen insights into folding and unfolding processes, as well as factors affecting stability. Due to the volume and concentration requirements of the DSC technique, and the constraints in available quantities of IFN- α 2b the DSC experiments on the ABS phase-forming components’ effect on the structural properties of proteins were attained only for BSA.
# The T m of BSA, which corresponds to the thermal unfolding transition midpoint, was measured in the absence and presence of the ABS phase-forming components at increasing concentrations (see Figure 1 and Table 2).
substance,measurement,setting,value
Bovine serum albumin [BSA],"Tm, Ellipticity 192 nm",BSA [1],75.765 °C
same,iso-electric point,[2],~4.7
same,DSC melting temperature Tm,BSA [3]; BSA 0.25 mg/mL in water,79.86 ± 0.014 °C
same,DSC melting temperature Tm,"BSA [3]; BSA 0.25 mg/mL recovered from [C2C1Im][C4F9SO3]-rich phase of BP#5, resuspended in water",78.79 ± 0.02 °C
same,DSC melting temperature Tm,"BSA [3]; BSA in [N1112(OH)][H2PO4]-rp (BP#8), 1.2–1.6 mg/mL per title",43.61 ± 0.01 °C and 43.61 ± 0.011 °C
same,Tm,BSA [4],75.59 °C
same,ΔHcal/ΔHvH,BSA [4],0.997
